Measured affinities in a library of Ab-14 light chain variants

The measurements come from Li et al. 2023 (doi:10.1038/s41467-023-39022-2) through the FLAb antibody collection.

All variants were tested on one target, the spike HR2 peptide PDVDLGDISGINAS (SARS-CoV-2).

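Designed CDR sequences, proposed from the first random library and measured here. Their group label is 14L_En_Gibbs (En: ensemble of fine-tuned language models; Gibbs: Gibbs sampling). The scFvs were displayed on barcoded MATa yeast, the peptide on MATalpha yeast. Mating (16 h, 30 °C) was followed by selection of diploids and sequencing of their barcodes. A regression on co-assayed BCL2-family reference pairs converts the normalised counts of each replicate to an apparent Kd. Each pool was mated in six replicate cultures.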

Parent: Ab-14, a human scFv built as VH, a (GGGGS)3 linker, VL. Only the CDRs of the light chain vary.
VH: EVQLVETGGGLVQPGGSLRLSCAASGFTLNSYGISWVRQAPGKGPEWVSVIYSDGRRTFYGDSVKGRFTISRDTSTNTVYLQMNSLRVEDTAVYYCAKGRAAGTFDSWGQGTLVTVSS
VL: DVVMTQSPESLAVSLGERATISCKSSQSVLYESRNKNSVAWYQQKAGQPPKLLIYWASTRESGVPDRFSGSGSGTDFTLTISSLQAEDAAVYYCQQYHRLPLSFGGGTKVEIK

Variants are written as CDR1, CDR2 and CDR3 of the light chain (limits as in the source). Parent: KSSQSVLYESRNKNSVA, WASTRES, QQYHRLPLS.
The read-out is the apparent dissociation constant on a log10 scale (nM): the lower, the stronger.
Averages over replicates are reported, and they cover detected replicates only.
A pair that was not seen in that replicate is written "n.d."; this usually means weak binding, but a binder can also be missed.
The range of this assay differs from that of the first round, and the authors advise against merging the two.
Empty control strains, which show no peptide, gave a signal in 4% of pairings with all light chain designs; the median was 2.64 and 95% of these signals were weaker than 1.59. No background was subtracted. Also given: how often the same scFv was detected with the empty control strains, with their mean in brackets.
The parent sequence was in this pool as ten entries: three were never detected, three once, and four in most replicates, with averages from 0.34 to 2.37.
The authors averaged sequences with at least three values out of six and counted those with two or fewer as poor binders.

CDR-L1,CDR-L2,CDR-L3,"replicates, log10 nM","mean, log10 nM",control signals
TLDLRTSYGNGLNKAIA,DVSIKDY,QQYARLPLL,0.53 0.03 0.42 0.19 0.19 0.35,0.29,1 of 18 (1.87)
MVVGPDEGEEHNWQSVA,SAELRAM,QQYFRLPLM,1.30 1.68 1.22 1.07 1.31 1.10,1.28,0 of 18
MIEIIHDGYEEMRSAIA,DTSLVRM,QQYYRLPLM,n.d. 1.67 n.d. 2.08 1.87 n.d.,1.87,1 of 18 (1.46)
SLPNARPDGYLQKNNVA,EGTERSD,QQYMRLPLF,-0.27 -0.34 0.06 -0.42 -0.14 0.24,-0.15,2 of 18 (2.41)
KLAMALSVEFGTYHGVA,DADHKAD,QQYNRLPLS,0.00 -0.11 -0.05 -0.04 -0.42 0.16,-0.08,0 of 18
MFEEYQSEGGANNNNVA,DHNCGIR,QQYYRLPLT,n.d. n.d. n.d. 1.58 n.d. n.d.,1.58,0 of 18
HISSMDMLDGGIIHNIA,DTGITER,QQYMRLPLI,0.54 0.34 0.54 0.20 0.27 0.60,0.42,0 of 18
KFYSAWSGEEQNNNNIA,SADTLNH,QQYWTLPLS,0.98 0.94 0.72 0.78 0.79 1.37,0.93,2 of 18 (2.45)
MVKMENEEFAQDKHSVA,EAVERES,QQYHRLPII,1.21 1.23 1.34 0.95 0.97 1.21,1.15,0 of 18
NIQDNEGGLLSQKNSVA,STEERSD,QSYHRLPLS,1.09 0.46 1.00 0.50 0.57 0.54,0.69,1 of 18 (2.08)
QLDLRMNEQGMQPAAIA,GATNRFT,QQYQKLPLS,0.22 0.10 0.07 0.16 -0.20 0.17,0.09,0 of 18
QFDTNLHYMGANKNSVA,EMTEVTI,QQYHRLPIE,n.d. n.d. n.d. n.d. n.d. n.d.,n.d.,0 of 18
KIYQLGKGSQKINNNIA,QTDIREL,QSYNRLPLS,0.52 0.48 0.37 0.18 0.28 0.35,0.36,1 of 18 (3.19)
KIQHQHVGNWKTANNIA,QGDQRGS,QSYDRLPLS,1.59 1.16 1.96 1.01 1.78 2.23,1.62,0 of 18
HLSLPWQLGHDSTNAVA,NDSTLMT,QHYSRLPLS,0.10 0.33 -0.02 0.29 -0.16 0.34,0.15,0 of 18
KLMMSLQGEPKDWYAIA,EGESATT,QQYARLPLM,n.d. 2.23 n.d. n.d. n.d. n.d.,2.23,1 of 18 (3.14)
TLMQPQKELGMAKDNIA,DGSIRLG,QQYHRLPLV,1.19 0.73 0.67 0.92 0.89 1.03,0.91,3 of 18 (2.29)
KFQIGNNQGHSMEHNIA,EGTYAEE,QQYARLPLQ,0.82 0.13 0.02 0.42 0.20 0.26,0.31,0 of 18
ELFFNDFQLAIESNSIA,HASLREV,QQYAHLPLV,1.39 n.d. n.d. 1.01 n.d. n.d.,1.20,0 of 18
TLALRTSYGNGLNKAIA,DVSIKDY,QQYARLPLL,n.d. 1.69 1.25 1.28 1.96 2.22,1.68,0 of 18
MIEEDNAGEQKNSSNIA,SQDQKED,QQYQRLPLI,1.35 n.d. 0.59 1.41 2.43 2.37,1.63,0 of 18
QVQYHPGESLRHTNSIA,DVNIKDM,QQYSRLPLS,0.36 0.41 0.49 0.59 0.26 0.36,0.41,2 of 18 (2.30)
SVTRETDGNGLKMNSVA,DAAEAMT,QQYQRLPLT,0.62 0.16 0.57 0.07 -0.24 0.27,0.24,1 of 18 (1.98)
SLSPFMDTYNQKYDSVA,DTANIDI,QQYDRLPLS,1.54 n.d. n.d. n.d. n.d. n.d.,1.54,0 of 18
KLAMILSMEFGTYHGVA,DADHKAD,QQYNRLPLS,0.67 0.68 0.52 0.71 1.16 0.87,0.77,1 of 18 (2.43)
KVHAYTQGVEQDMQNIA,ETSYASR,QQYFRLPLS,2.05 1.28 1.70 2.17 0.96 0.74,1.49,0 of 18
HMNHEFLGYSNYEQAIA,HGSQRLY,QQYSHLPLS,0.32 0.30 -0.03 0.62 0.43 0.62,0.38,1 of 18 (3.72)
KITLIFSNKGNSRHSVA,NAETLAH,QQYYRLPFM,n.d. 1.17 1.03 n.d. 1.50 n.d.,1.23,0 of 18
SMAYFQGGYNQQEKAIA,ESATRTQ,QQYFRLPLT,n.d. n.d. n.d. n.d. n.d. n.d.,n.d.,0 of 18
KIEISNSVSLRGTRAIA,QMSTRAH,QQYHRLPLT,0.49 0.92 0.78 0.57 1.19 1.12,0.85,0 of 18
SLVQEKSVGDYNAGNVA,AGNQLSV,QQYNRLPLI,0.28 0.35 0.08 0.04 0.14 0.21,0.18,0 of 18
QVQYAPGESLRHTNSIA,DVNIKDM,QQYSRLPLS,0.33 0.17 0.12 0.03 0.14 0.36,0.19,3 of 18 (3.33)
TLVDNIQGGMWAKKNVA,DESTRVN,QQYYRLPLS,-0.14 -0.23 -0.45 -0.44 -0.30 -0.33,-0.32,0 of 18
NITQIGDNMGDQRANVA,NGETLFH,QQYARLPLL,0.41 0.67 0.57 0.58 0.77 0.39,0.56,1 of 18 (2.43)
KMRVSLLQGIYRADSIA,STDIRVL,QQYHHLPLS,1.42 0.71 1.20 1.24 0.96 1.32,1.14,0 of 18
NLQLQPRDGAQAQNSIA,DVSEADM,QHYARLPLT,2.36 1.83 1.55 2.86 3.03 1.35,2.16,0 of 18
KLQWYNTYATYSASNIA,DGAQRLN,QQYMRLPLM,0.05 -0.05 -0.21 -0.31 -0.22 0.04,-0.11,1 of 18 (2.74)
QLGWVDSGDTLSQGAIA,HAAELVD,QQYFRLPLL,1.27 0.87 0.80 0.77 0.87 0.58,0.86,0 of 18
NIVGRVNGKGTTTKNIA,DAEFRAG,QQYSRLPLS,0.34 0.15 0.14 -0.12 0.33 0.40,0.21,1 of 18 (4.12)
KLRWDDMPHFETRSNVA,DATMRVH,QQYNRLPLD,0.84 0.68 0.25 0.84 0.34 0.83,0.63,1 of 18 (2.10)
HITDLMYFGNEGEWNIA,DKNISVM,QQYFRLPLS,0.85 1.09 0.51 0.50 0.69 1.32,0.82,1 of 18 (2.44)
SIRAVGCDNQRNHSNIA,DATQIED,QQYDMLPLS,0.71 0.87 1.01 1.05 1.27 1.46,1.06,1 of 18 (2.29)
RLTEHYYMRADANHAVA,DASTRND,QQYHRLPLW,0.65 0.71 0.83 0.56 0.41 0.62,0.63,1 of 18 (1.60)
KVAELLEMGENFQSSIA,SGAHKVH,QQYYRLPLG,1.16 0.87 0.57 0.56 0.50 0.53,0.70,0 of 18
WLAMEEQPGDRGYSSVA,DTDARMA,QQYFRLPLS,0.33 0.28 0.25 0.31 0.20 0.23,0.27,1 of 18 (2.40)
IMTGIIEEGSNNKNNIA,ENKERFQ,QQYWQLPLS,0.79 0.46 0.58 0.55 0.53 0.31,0.54,0 of 18
NLSMELEDAGVKDMSIA,DAELSTW,QQYMRLPLS,1.24 1.15 1.01 1.76 1.12 1.61,1.31,0 of 18
MLTMFNNENQGWSNNIA,DTNNLQE,QQYSRLPFM,0.51 0.97 0.94 0.86 1.32 1.25,0.98,2 of 18 (2.14)
KLAMYLEMNARTIHAIA,EANLKPS,QQYNRLPIS,n.d. n.d. 2.28 n.d. n.d. 2.82,2.55,2 of 18 (2.84)
SMSWAHFNPDNWKNSIA,DATHVAY,QQYSRLPIT,0.16 0.18 0.21 0.15 -0.40 0.09,0.07,0 of 18
NLGQKMALITEQRNSIA,DSTVRED,QQYSRIPLI,1.08 1.33 1.12 1.73 1.62 1.12,1.33,3 of 18 (2.34)

Picked from the list: the 6 lowest averages where every replicate gave a value.

CDR-L1	CDR-L2	CDR-L3	replicates, log10 nM	mean, log10 nM	control signals
TLVDNIQGGMWAKKNVA	DESTRVN	QQYYRLPLS	-0.14 -0.23 -0.45 -0.44 -0.30 -0.33	-0.32	0 of 18
SLPNARPDGYLQKNNVA	EGTERSD	QQYMRLPLF	-0.27 -0.34 0.06 -0.42 -0.14 0.24	-0.15	2 of 18 (2.41)
KLQWYNTYATYSASNIA	DGAQRLN	QQYMRLPLM	0.05 -0.05 -0.21 -0.31 -0.22 0.04	-0.11	1 of 18 (2.74)
KLAMALSVEFGTYHGVA	DADHKAD	QQYNRLPLS	0.00 -0.11 -0.05 -0.04 -0.42 0.16	-0.08	0 of 18
SMSWAHFNPDNWKNSIA	DATHVAY	QQYSRLPIT	0.16 0.18 0.21 0.15 -0.40 0.09	0.07	0 of 18
QLDLRMNEQGMQPAAIA	GATNRFT	QQYQKLPLS	0.22 0.10 0.07 0.16 -0.20 0.17	0.09	0 of 18